Series [1] has as its system HSV-2 (Strain-A234) clinical isolate. Description: microbe, parasite or virus in culture. The settings on record: Human alphaherpesvirus 2, Vero, 48 h.
Series [2] shares this test system. The settings on record: selectivity index, Vero CC50 / HSV-2 EC50.

In general, EC50 refers to the concentration that produces a half-maximal response.

The structures appear in SMILES notation. Where “and” joins values, the source holds several entries; their conditions need not be identical. Identical values can stand only once.

Regarding `COc1cc(C(=O)O)c2c(c1C)OC(=O)c1c(C)cc(O)c(C=O)c1O2` [PA, Psoromic acid], the EC50 in series [1] is 2.7 ± 0.43 µM. For the same compound, the “SI (CC50/EC50)” value in series [2] was 114.8 and >114.8.

For the origin of these results see article PMC6720901, “Psoromic Acid, a Lichen-Derived Molecule, Inhibits the Replication of HSV-1 and HSV-2, and Inactivates HSV-1 DNA Polymerase: Shedding Light on Antiherpetic Properties” (Molecules, 2019).
